Test results: US20050031607A1

Assays:
[1] = biological target: Glu-plasminogen (UniProt P00747)
[2] = biological target: PAI-1 (UniProt P05121); assay: equimolar enzyme and PAI-1 (2.0-8.0 nmol/L), 25° C., residual S2444 hydrolysis, plot of 1/[E] vs. time

Substance | KM of Glu-plasminogen activation [1] | kcat of Glu-plasminogen activation [1] | kcat/KM of Glu-plasminogen activation [1] | Reaction Rate of Glu-plasminogen activation, Buffer Control (ΔA405 × 10^6/min^2) [1] | Reaction Rate of Glu-plasminogen activation, with D-dimer (1 µmol/L) (ΔA405 × 10^6/min^2) [1] | Reaction Rate of Glu-plasminogen activation, with Fibrinogen (3 µmol/L) (ΔA405 × 10^6/min^2) [1] | Reaction Rate of Glu-plasminogen activation, with Fragment E (1 µmol/L) (ΔA405 × 10^6/min^2) [1] | Reaction Rate of Glu-plasminogen activation, with SFM (1 µmol/L) (ΔA405 × 10^6/min^2) [1] | also measured
two-chain M5 (activated two-chain form of pro-urokinase mutant M5, Lys^300→His) | 3.6 µM | 0.153 s⁻¹ | 2.56 min/µM | – | – | – | – | – | F (fold of kcat/KM against UK) [1]: 1.6 fold
Ala^158-M5 (plasmin-resistant M5, Lys^158→Ala and Lys^300→His) | – | – | – | 0.9 | 1.84 | 0.19 | 7.9 | 0.62 | –
UK (urokinase, two-chain form prepared by plasmin activation of pro-UK) (from UniProt P00749 21-178; P00749 179-431) (enzyme; other documents disagree on this pair) | – | – | – | – | – | – | – | – | second-order rate constant of inhibition (printed as Ki) [2]: 1.7e+07 M⁻¹ s⁻¹
Ala^158-proUK (plasmin-resistant pro-UK, Lys^158→Ala) | – | – | – | 4.4 | 4.3 | 1.2 | 29.1 | 3.8 | –
UK (urokinase, two-chain form prepared by plasmin activation of pro-UK) | 11.4 µM | 0.302 s⁻¹ | 1.59 min/µM | – | – | – | – | – | F (fold of kcat/KM, UK as reference) [1]: 1 fold
